# Laboratory results from patent publication US11932652B2, “Pyrrolidinyl urea derivatives and application thereof in TrkA-related diseases” (ZHANGZHOU PIEN TZE HUANG PHARMACEUTICAL CO., LTD., priority 2018, dated 2024).
# Sequences of proteins named here, by UniProt entry; tags and fusion partners are left off. Residues count along the entry.
# UniProt P04629, 33-796 limits assumed: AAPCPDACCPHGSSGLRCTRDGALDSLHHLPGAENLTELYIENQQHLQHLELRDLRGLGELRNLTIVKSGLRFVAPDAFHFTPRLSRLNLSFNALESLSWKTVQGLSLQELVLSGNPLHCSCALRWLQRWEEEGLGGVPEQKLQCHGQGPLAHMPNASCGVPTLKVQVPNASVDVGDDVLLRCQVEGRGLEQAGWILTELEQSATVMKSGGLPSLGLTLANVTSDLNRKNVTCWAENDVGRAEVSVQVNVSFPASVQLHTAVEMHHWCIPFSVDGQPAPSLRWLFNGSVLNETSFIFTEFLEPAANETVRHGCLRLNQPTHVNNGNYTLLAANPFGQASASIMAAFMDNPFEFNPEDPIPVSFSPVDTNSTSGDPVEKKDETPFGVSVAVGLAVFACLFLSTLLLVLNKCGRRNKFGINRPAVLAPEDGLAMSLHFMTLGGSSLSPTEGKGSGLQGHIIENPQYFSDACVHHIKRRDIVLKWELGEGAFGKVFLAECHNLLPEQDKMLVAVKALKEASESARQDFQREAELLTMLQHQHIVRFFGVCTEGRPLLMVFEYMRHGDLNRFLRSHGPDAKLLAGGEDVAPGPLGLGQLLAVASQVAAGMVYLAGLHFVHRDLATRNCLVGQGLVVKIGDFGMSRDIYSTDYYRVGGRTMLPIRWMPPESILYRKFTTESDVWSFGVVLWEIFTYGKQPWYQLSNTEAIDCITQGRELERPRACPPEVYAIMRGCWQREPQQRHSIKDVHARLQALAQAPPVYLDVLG
# Assays:
# TrkA = TrkA (Homo sapiens, UniProt P04629); assay: TrkA enzyme activity test (HTRF); settings: read-out: TrkA IC50; 0.5 nM TrkA kinase, 90 μM ATP, 23° C., 90 minutes
# Description: 50 mM Hepes (pH 7.5), 5 mM MgCl2 (magnesium chloride), 0.01 mM orthovanadate (sodium vanadate), 1% BSA (bovine serum albumin), 1 mM (dithiothreitol)
# This experiment used Cisbio's homogeneous time-resolved fluorescence resonance energy transfer (HTRF® method) for activity test. In the test plate, the enzyme, biotin-labeled peptide substrate, ATP, and test compound were mixed, and incubated for reaction. After the reaction, ethylenediaminetetraacetic acid was added to terminate the reaction; at the same time, Eu-labeled antibody and streptavidin-labeled XL665 were added for reaction and detection. The data were expressed by the readings of the fluorescence signal at 665 nm and 620 nm, where a high ratio of 665 nm/620 nm indicated higher activity, and a low ratio of 665 nm/620 nm indicated inhibition of activity.
# 1. Dilution of compound: the test compound was 3-fold diluted to prepare a total of 11 concentrations, the concentration was from 10 μM to 0.17 nM in the final system;
# 2. […] 10 μL of stop solution containing 20 mM EDTA, 1.34 nM phosphorylated substrate antibody, and 100 nM streptavidin-labeled fluorescent molecule XL-665 was then added, incubated at 23° C. for 60 minutes; the signal was read with Envision;
# 3. The inhibition rate of the compound was calculated from the data read by the instrument, and the IC50 value was calculated using the mode 205 in XLFIT5 of IDBS.
# plasma protein [1] = assay: Plasma protein binding rate (PPB) test, human plasma; settings: 2 μM, dialysis 37° C. 4 hours
# plasma protein [2] = assay: Plasma protein binding rate (PPB) test, SD rat plasma; settings: 2 μM, dialysis 37° C. 4 hours
# [3] = Metabolic stability (MMS) by rat liver microsome; settings: 0.5 mg protein/mL
# [4] = Metabolic stability (MMS) by human liver microsome; settings: 0.5 mg protein/mL
compound,measurement,setting,value
COCCN1C[C@@H](n2ccc(F)c2)[C@H](NC(=O)Nc2c(C)c(-c3cnc(C4(F)CN(C)C4)nc3)nn2-c2ccccc2)C1,IC50,TrkA,0.92 nM
COCCN1C[C@@H](n2cc(F)c(F)c2)[C@H](NC(=O)Nc2c(C)c(-c3cnc4c(c3)CN(CCO)C4)nn2-c2ccccc2)C1,"Plasma protein unbound rate, Human plasma",plasma protein [1],33.8%
same,"Plasma protein unbound rate, SD Rat plasma",plasma protein [2],8.0%
same,"Intrinsic clearance by liver microsome, Rat",[3],<17.3 mL/min/kg
same,"Intrinsic clearance by liver microsome, Human",[4],45.3 mL/min/kg
same,IC50,TrkA,0.25 nM
